# Test system: A2780-Dx
# Experiment: Cytotoxicity assay (SRB, 72 h) A2780-Dx
# Assay type: cell-based, Human
# Conditions: A2780-Dx versus A2780
smiles,measurement,value
CCc1c2c(nc3ccc(OC(=O)N4CCC(N5CCCCC5)CC4)cc13)-c1cc3c(c(=O)n1C2)COC(=O)[C@]3(O)CC [Irinotecan],RI (Resistance Index),5.3
